{"source": "patent EP4825391A1", "about": "“THERAPEUTIC PEPTIDES AND METHODS FOR TREATING AUTOIMMUNE RELATED DISEASE” (dated 2026)", "key": {"[1]": {"test_system": "ApoE -/- mice", "test": "Atherosclerosis in ApoE -/- mice on high fat diet: en-face Sudan IV, Paigen method, trichrome (Example 13)", "conditions": "1mg/kg IV once a week for 4 weeks, versus control"}, "[2]": {"test_system": "GLUT4", "test": "Western analysis of GLUT4 in adipose and muscle tissue (Example 15)", "conditions": "treated versus untreated mice"}, "[3]": {"test_system": "ApoE -/- mice", "test": "Glucose tolerance testing (GTT) in ApoE -/- mice on 60% high fat diet (Example 15)", "conditions": "versus control"}, "[4]": {"test_system": "Th40 cells", "test": "Cytokine production of splenic lymphocytes treated in vitro, flow cytometry (Example 16)", "conditions": "24 hours in vitro, varying concentrations, Brefeldin A for 4 hours"}, "[5]": {"test_system": "ApoE deficient mice", "test": "Atherosclerosis of the aortic arch in ApoE deficient mice on normal chow diet (Example 9)", "conditions": "for atherosclerosis: ApoE deficient mice"}, "[6]": {"conditions": "lethargy, rash, fatigue, anemia, hyperglycemia, hypocalcemia, coagulapathies, neutropenia, renal and hepatic complications; cited from earlier work"}, "[7]": {"test_system": "NOD mice", "test": "Prevention of diabetes in NOD mice by CD154 peptides (Example 1)", "conditions": "25 ug (1mg/kg) weekly into the tail vein from 6 weeks of age, diabetes = blood glucose greater than 250 mg/dL for three consecutive days"}, "[8]": {"test_system": "blood cells", "test": "Binding of biotin-conjugated 15-mer peptide to whole blood cells, HRP-avidin, absorbance at 405 nm (Example 4)", "conditions": "patients having type-I diabetes versus non-diabetic controls"}, "[9]": {"test_system": "whole human blood", "test": "Clot study in whole human blood (Example 11)", "conditions": "dosing levels similar to the murine studies"}, "[10]": {"test_system": "NOD mice", "test": "Reversal of hyperglycemia and insulin granulation of the pancreas in diabetic NOD mice (Example 5)", "conditions": "six weeks after reversal of hyperglycemia, aldehyde/fuschsin stain, versus irrelevant peptide"}, "[11]": {"test_system": "NOD mice", "test": "Reversal of hyperglycemia in newly diabetic NOD mice (Example 2)", "conditions": "already diabetic NOD mice, 100 ug intravenously then weekly injections for ten weeks"}, "[12]": {"test_system": "CD4+ and CD8+ cells", "test": "CD4/CD8 ratio in blood of treated NOD mice by flow cytometry (Example 1)"}, "[13]": {"test_system": "ApoE-/- mice", "test": "Existing plaque in ApoE-/- mice treated from 20 weeks of age (Example 10)", "conditions": "versus control"}, "[14]": {"conditions": "1mg/kg IV once a week for 4 weeks from 20 weeks of age"}, "[15]": {"conditions": "1mg/kg IV once a week for 4 weeks"}}, "data": [{"compound": "C[C@H](N)C(=O)N[C@@H](CCCCN)C(=O)N[C@@H](CCCCN)C(=O)NCC(=O)N[C@@H](Cc1ccc(O)cc1)C(=O)N[C@@H](Cc1ccc(O)cc1)C(=O)O", "values": [{"measurement": "lesion areas, en-face Sudan IV stain", "setting": "[1]; high fat diet for 16 weeks", "result": "significant reduction in lesion areas"}, {"measurement": "plaque volume (area under the curve), Paigen method", "setting": "[1]; high fat diet", "result": "reduction in plaque volume"}, {"measurement": "expression of the GLUT4 protein in muscle tissue", "setting": "[2]", "result": "increased expression"}, {"measurement": "expression of the glucose transport protein (GLUT4) in white adipose tissue", "setting": "[2]", "result": "increase in expression"}, {"measurement": "glucose tolerance", "setting": "[3]; 1mg/kg (weekly via I.V. injection), 6 hours fasting, 1g/kg glucose intraperitoneal", "result": "significantly increased"}, {"measurement": "insulin sensitivity", "setting": "[3]; 1mg/kg, GTT", "result": "significantly improved"}, {"measurement": "plasma insulin levels", "setting": "[3]; 1mg/kg, GTT", "result": "lowered"}, {"measurement": "inflammatory cytokine production of IL2, INFγ, and IL17a", "setting": "[4]", "result": "affects the inflammatory cytokine production"}, {"measurement": "atherosclerosis", "setting": "[5]", "result": "abrogates atherosclerosis"}]}, {"compound": "Cc1ccc(C(=O)Nc2ccc(S(=O)(=O)O)c3cc(S(=O)(=O)O)cc(S(=O)(=O)O)c23)cc1NC(=O)c1cccc(NC(=O)Nc2cccc(C(=O)Nc3cc(C(=O)Nc4ccc(S(=O)(=O)O)c5cc(S(=O)(=O)O)cc(S(=O)(=O)O)c45)ccc3C)c2)c1", "values": [{"measurement": "toxicities", "setting": "[6]", "result": "numerous reversible toxicities"}]}, {"compound": "VLQWAKKGYYTMK", "values": [{"measurement": "development of diabetes", "setting": "[7]", "result": "had significant effects on the development of diabetes"}]}, {"compound": "VLQWAKKGYYTMKSN", "values": [{"measurement": "development of diabetes", "setting": "[7]", "result": "prevented the onset of diabetes"}, {"measurement": "15-mer peptide binding activity of blood cells", "setting": "[8]", "result": "higher 15-mer peptide binding activity than cells from non-diabetic controls"}, {"measurement": "clotting of whole human blood", "setting": "[9]", "result": "does not modify or change the clotting of whole human blood significantly outside of normally recognized levels"}, {"measurement": "insulin granules of the pancreas", "setting": "[10]", "result": "preserved insulin granules in the majority of the mice"}, {"measurement": "hyperglycemia", "setting": "[11]", "result": "can reverse hyperglycemia"}, {"measurement": "compromise of the immune system, as determined by the CD4/CD8 ratio", "setting": "[12]", "result": "did not result in compromise of the immune system"}, {"measurement": "number of advanced plaques", "setting": "[13]; [14]", "result": "reduced"}, {"measurement": "number of individual early plaques", "setting": "[13]; [14]", "result": "reduced"}, {"measurement": "average cap width (cap size)", "setting": "[13]; [15]", "result": "greater"}, {"measurement": "average core width (core size/plaque size)", "setting": "[13]; [15]", "result": "decreased"}, {"measurement": "total area of the 2.5 mm segment of the lesser curvature of the aortic arch", "setting": "[5]; 1mg/kg IV three times a week from 9 weeks of age, versus control", "result": "substantially reduced"}, {"measurement": "atherosclerosis", "setting": "[5]", "result": "abrogates atherosclerosis"}, {"measurement": "total number of plaque", "setting": "[5]; within the 2.5mm segment, 1mg/kg IV three times a week, versus control", "result": "significantly decreased"}]}]}
